# Data as given in patent publication US20190367871A1, “EMBRYONIC STEM CELL MEDIA AND CULTURE” (YISSUM RESEARCH DEVELOPMENT COMPANY OF THE HEBREW …, priority 2018, published 2019).
# “Also recorded” adds a separate entry of the source.
# Key:
# mTORC1 = mTORC1 (Homo sapiens, UniProt P42345); assay: Western blot of phosphorylated 4E-BP1 (mTORC1 target) in hESCs; format: cell-based; conditions: short- and long-term treatment
# mTORC2 = mTORC2 (Homo sapiens, UniProt P42345); assay: Western blot of phosphorylated AKT (mTORC2 target) in hESCs; format: cell-based; conditions: short- and long-term treatment
compound,measurement,setting,value
CCC(=O)N1CCN(c2ccc(-n3c(=O)ccc4cnc5ccc(-c6cnc7ccccc7c6)cc5c43)cc2C(F)(F)F)CC1 [Torin 1],mTORC1 activity (phosphorylated 4E-BP1),mTORC1,inhibit both mTORC1 and mTORC2; also recorded: inhibits both complexes
same,mTORC2 activity (phosphorylated AKT),mTORC2,inhibit both mTORC1 and mTORC2; also recorded: inhibits both complexes
